This is an account of results in patent publication US20110257035A1, “IDENTIFICATION OF SIGNATURE GENES ASSOCIATED WITH HEPATOCELLULAR CARCINOMA” (Bayer Healthcare LLC, priority 2008, published 2011).

Entries after “also recorded” stand apart in the source; their conditions may differ.

The subject of assay [1] is plasma s-VEGFR-2. Description: Plasma s-VEGFR-2 ELISA, baseline vs C3D1, HCC patients. The assay is classed as in vivo, human. As to conditions: sorafenib-treated HCC patients. As for the experimental part: (§1) Plasma samples were obtained from patients at the time of screening, C3D1, and at the end of treatment visit. Samples from screening and C3D1 were assayed; samples from the end of treatment visit have not been assayed.
(§2) All six assays were sandwich immunoassays obtained from commercial sources. All assays were performed according to the manufacturers' protocols, as summarized below. All samples were assayed in duplicate and the average value was used for correlative analysis. Averaged biomarker values for each timepoint for each patient are given in Appendix 1.
ELISA kits for VEGF (cat #DVE00), s-VEGFR-2 (cat #DVR200), HGF (cat #DHG00), and c-KIT (cat #DSCR00) were obtained from R&D Systems.
A monoclonal capture antibody specific to the target protein was provided pre-coated in microplate wells. Appropriately diluted samples and standards were pipetted into the wells, allowing capture of the target protein by the immobilized antibodies. Unbound sample was washed away, and a horseradish peroxidase-conjugated antibody also specific for the target protein was added to the wells. Wells were washed again, and a substrate solution was added to each well. The colored reaction product was measured spectrophotometrically and was translated to the quantity (pg/mL or ng/mL) of biomarker protein in the sample by use of a simultaneously generated standard curve.
(In an ELISA, binding on a coated surface is turned into a signal by an enzyme label.)

The test system of assay [2] is plasma s-VEGFR-3. Briefly: Plasma s-VEGFR-3 ELISA, baseline vs C3D1, HCC patients. The class given is in vivo, human. The conditions noted are these: sorafenib-treated HCC patients. As for the experimental part:
as §1, §2
ELISA kits for s-VEGFR-3 (cat #DY349) were obtained from R&D Systems.
A capture antibody specific to the target protein was provided in solution by the manufacturer and was coated into microplate wells before running the assay. Appropriately diluted samples and standards were pipetted into the wells, allowing capture of the target protein by the immobilized antibodies. Unbound sample was washed away, and a biotinylated antibody also specific for the target protein was added to the wells. After washing, a streptavidin-horseradish peroxidase conjugate was added. Wells were washed again, followed by addition of a substrate solution. The colored reaction product was measured spectrophotometrically and was translated to the quantity (pg/mL) of biomarker protein in the sample by use of a simultaneously generated standard curve.

`CNC(=O)c1cc(Oc2ccc(NC(=O)Nc3ccc(Cl)c(C(F)(F)F)c3)cc2)ccn1` [Sorafenib]: in assay [1], the “Direction of change of plasma s-VEGFR-2 in response to sorafenib” value is reported as “attenuated; also recorded: decrease”. In addition, the “Direction of change of plasma s-VEGFR-3 in response to sorafenib” value in assay [2] was “attenuated; also recorded: decrease”.
